Among the data in ChEMBL document CHEMBL1201862, “PubChem BioAssay data set” (2004) are GI50 values, retold here.

The list shows a part of the results. Cut-off read from the data, not from the text of the source: active = GI50 up to about 1.1 µM and inactive = higher. Measured potencies and affinities stand elsewhere. Only a part of the results of these assays is listed, not drawn at random. Some results for these compounds are left out of this collection, so the calls shown say nothing about other tests.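 Where inhibition never reached the appropriate level, the endpoint shown equals the highest concentration tested. Otherwise, values were interpolated linearly from a five-concentration, 48-hour dose response in 96-well plates. Abbreviation: GI50, concentration required for 50% inhibition of growth.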

In the assay the test system is UO-31. The assay can be described thus: NCI tumour cell line growth inhibition, 48 h.

As for `CC/C=C\C(O)(C(=O)OC1CN2CCC1CC2)C1CCCC1` (stereo unspecified), the GI50 was active: 10 nM.
